Data taken from patent US20250287987A1, “AEROSOLISABLE MATERIAL” (NICOVENTURES TRADING LIMITED, priority 2022, published 2025).

Test: LogP (1-octanol/water partition coefficient) of terpenes, slow-stirring method
From the text: LogP is the partition coefficient of a molecule between aqueous and lipophilic phases, usually considered as octanol and water. As referred to herein, the LogP of specific terpenes can be determined using the “slow-stirring” method, wherein water, 1-octanol and the test substance are equilibrated in a thermostated stirred reactor. Exchange between the phases is accelerated by stirring. The stirring introduces limited turbulence which enhances the exchange between 1-octanol and water without microdroplets being formed. A suitable “slow-stirring” method is: Test No. 123: Partition Coefficient (1-Octanol/Water): Slow-Stirring Method, 30 Jun. 2022, OECD Guidelines for the Testing of Chemicals.

## C=CC(C)(O)CCC=C(C)C (stereo not shown) [Linalool]
  logP: 3.29
